Results published in PubChem BioAssay AID1486 (The Scripps Research Institute Molecular Screening Center, 2009).
Where “and” joins values, the source holds several entries; their conditions need not be identical. Equal values may be shown once. Only a part is listed here, and it is no random draw. Calls of active or inactive are those of the source.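 Rule for the calls: active = inhibition above a per-campaign cutoff, the mean inhibition of all tested compounds plus 3 SD (cut at about 27% in these data); inactive = the rest.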

Experiment: growth loss in parental Ba/F3 cells – cell-based, murine pro-B, CellTiter-Glo luminescence, counter-screen for JAK2V617F inhibitor project (AID 1486);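 note: 0% = DMSO wells and 100% = JAK Inhibitor I control wells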
Settings: Ba/F3 parental viability, CellTiter-Glo ATP luminescence; at 5.6 µM; hits give high values

| SMILES | inhibition |
| --- | --- |
| CC(C)=N/N=C(\N)N[N+](=O)[O-] | inactive: 4% |
| CN(C)C(=O)OCCc1n(C)cc[n+]1C | inactive: 0.22% |
| CC1CCN(C(=O)Oc2c(Cl)cc(Cl)c3cccnc23)CC1 | inactive: 2.53% |
| Nc1ccc([As](=O)(O)c2ccc(N)cc2)cc1 | inactive: -2.11% |
| C[N+]1=C2C=CC=CC=C2SC12C([N+](=O)[O-])=CC([N+](=O)[O-])=C[C-]2[N+](=O)[O-] (centres undefined) | inactive: -3.23% |
| CCN(/C(=N/P(=O)(N1CCOCC1)N1CCOCC1)N1CCOCC1)c1ccc(OC)cc1 | inactive: 2.02% |
| CC(=O)N1C2C3N(C(C)=O)C1C1N(C(C)=O)C(C(N1C(C)=O)N3C(C)=O)N2C(C)=O | inactive: 0.52% |
| O=[N+]([O-])c1cccc2n[nH]nc12 | inactive: 5.06% |
| Cc1ccc(NP(=O)(Oc2ccccc2)Oc2ccccc2)nc1 | inactive: 22.5% |
| O=[N+]([O-])c1cc([N+](=O)[O-])c(CCNc2ccccc2)c([N+](=O)[O-])c1 | inactive: 12.4% |
| CCc1nc2c(n1)c1c(non1O)c1c2no[n+]1[O-] | active: 44.4% |
| COc1ccc(C2=NCC(CBr)S2)cc1 (centres undefined) | inactive: 1.99% |
| O=[N+]([O-])c1cccc(NC2=NCC(CBr)S2)c1 (centres undefined) | inactive: 0.18% |
| O=C(O)CNc1ccc([As](=O)(O)O)cc1 | inactive: -0.35% |
| CC(C)(C)C(=O)NC(Sc1ccncn1)C(Cl)(Cl)Cl (centres undefined) | inactive: -0.99% |
| O=[N+]([O-])c1ncn(CCn2ncnc2[N+](=O)[O-])n1 | inactive: 10.8% |
| O=C(Nc1cc([As](=O)(O)O)ccc1O)c1ccccc1 | inactive: -1.62% |
| CCN(N=Nc1nonc1N)c1nonc1N | inactive: 0.36% |
| Nc1cccc2ccc([As](=O)(O)O)cc12 | inactive: -3.78% |
| CCOP(=O)(Nc1ccccc1)OCC | inactive: 2.59% and inactive: -4.93% |
| Cc1cc(SC(NC(=O)c2ccc(F)cc2)C(Cl)(Cl)Cl)ncn1 (centres undefined) | inactive: 2.49% |
| Cc1ccc(NP(=O)(Oc2ccccc2F)Oc2ccccc2F)nc1 | inactive: -0.79% |
| O=C(O)c1ccccc1[As](=O)(O)O | inactive: 5.8% |
| CC(=O)Nc1ccc([As](=O)(O)O)cc1 | inactive: -2.82% |
| O=P(Nc1nc2ccc(Cl)cc2s1)(c1ccccc1)c1ccccc1 | inactive: 3.16% |
| CC(C)CC(=O)NC(Sc1ccc(Cl)cc1)C(Cl)(Cl)Cl (centres undefined) | inactive: 2.37% |

| SMILES | inhibition |
| --- | --- |
| Nc1cc(N)c2nonc2c1[N+](=O)[O-] | inactive: -2.54% |
| Oc1ccccc1CNc1ccccn1 | inactive: 3.36% |
| Cc1c2non([O-])c-2c(C)[n+](=O)[n+]1[O-] | inactive: 4.03% |
| O=C(NC(Sc1ccncn1)C(Cl)(Cl)Cl)c1ccccc1 (centres undefined) | inactive: 2.71% |
| COc1ccccc1OP(=O)(Nc1ccc(C)cn1)Oc1ccccc1OC | inactive: -0.76% |
| Cc1ccc(OP(=O)(Nc2nccs2)Oc2ccc(C)cc2)cc1 | inactive: 2.99% |
| Clc1ccc(Cl)c(NC2=NCC(CBr)S2)c1 (centres undefined) | inactive: 2.27% |
| CN1CCCC(OC(=O)C(c2ccccc2)c2ccccc2)C1 (centres undefined) | inactive: 2.36% |
| NC(=O)c1cc([N+](=O)[O-])cc([N+](=O)[O-])c1N | inactive: -0.04% |
| Cc1ccc(N/C(=N/P(=O)(N2CCOCC2)N2CCOCC2)N2CCOCC2)cc1 | inactive: 8% |
| CC(=O)Nc1ccc([As](=O)(O)O)c(O)c1 | inactive: 1.52% |
| CC(=O)Nc1ccc(Oc2c([N+](=O)[O-])cc([N+](=O)[O-])cc2[N+](=O)[O-])cc1 | inactive: 0.09% |
| CC(C)(C)C(=O)NC(Sc1ccccc1)C(Cl)(Cl)Cl (centres undefined) | inactive: 3.2% |
| O=P1(Nc2nc3ccc(Cl)cc3s2)COc2ccccc2O1 (centres undefined) | inactive: -1.32% |
| CCOc1ccc(C2=NCC(CBr)S2)cc1 (centres undefined) | inactive: 4.98% |
| Cc1ccccc1OP(=O)(Nc1ccccn1)Oc1ccccc1C | inactive: -1.53% |
| CN(C)C(=O)Oc1noc2ccccc12 | inactive: 3.17% |
| O=c1c2cc([N+](=O)[O-])ccc2[nH]c2c([N+](=O)[O-])cc([N+](=O)[O-])cc12 | inactive: 2.98% |
| COC(=O)c1cc2c(s1)N=C(c1ccccc1)N(C)P2(=O)N1CCOCC1 (centres undefined) | inactive: 5.18% |
| Cc1ccc(OP(=O)(Nc2ccccn2)Oc2ccc(C)cc2)cc1 | inactive: 1.79% |
| CC(=O)NC(SC(=S)N(CC(C)C)CC(C)C)C(Cl)(Cl)Cl (centres undefined) | inactive: 11.7% |
| CCC(=O)N1C2C3N(C(=O)CC)C1C1N(C(=O)CC)C(C(N1C(=O)CC)N3C(=O)CC)N2C(=O)CC | inactive: 0.28% |
| O=C(NC1CCS(=O)(=O)C1)NP(=S)(Oc1ccccc1)Oc1ccccc1 (centres undefined) | inactive: 4.01% |
| CCNC(=S)/N=C(\N)N[N+](=O)[O-] | inactive: 7.38% |
| c1ccc(-c2nn[nH]n2)c(-c2nn[nH]n2)c1 | inactive: 1.29% |
| CCOC(=O)NC(Sc1ccccc1)C(Cl)(Cl)Cl (centres undefined) | inactive: -0.46% |

| SMILES | inhibition |
| --- | --- |
| Cc1ccc(NP(=O)(Oc2cccc(C)c2)Oc2cccc(C)c2)nc1 | inactive: -0.69% |
| Nc1ccc([As](=O)(O)c2ccc([N+](=O)[O-])cc2)cc1 | inactive: 2.08% |
| C(Cc1nn[nH]n1)Cc1nn[nH]n1 | inactive: 5.48% |
| O=C(OC1CN2CCC1CC2)c1cccc(Cl)c1 (centres undefined) | inactive: -0.54% |
| O=[N+]([O-])c1ncn(CCn2cnc([N+](=O)[O-])n2)n1 | inactive: -0.93% |
| CC(=O)NC(SC(=S)N(C)C)C(Cl)(Cl)Cl (centres undefined) | inactive: -1% |
| O=[As](O)(c1ccccc1)c1ccc(O)cc1 | inactive: 2.1% |
| O=P(Nc1nc2ccccc2s1)(c1ccccc1)c1ccccc1 | inactive: -5.11% |
| O=P(Nc1ccccn1)(c1ccc(Br)cc1)c1ccc(Br)cc1 | inactive: 3.89% |
| c1nnnn1CCn1cnnn1 | inactive: 2.58% |
| O=P(Nc1nccs1)(c1ccccc1)c1ccccc1 | inactive: 5.03% |
| CC(C)C(=O)NC(Sc1ccccc1)C(Cl)(Cl)Cl (centres undefined) | inactive: 2.72% |
| O=[As](O)(c1ccccc1Br)c1ccccc1Br | inactive: -0.56% |
| CC1(CBr)Cn2c(nc3ccccc3c2=O)S1 (centres undefined) | inactive: 1.94% |
| CN(C(=O)Cc1ccc(Cl)c(Cl)c1)[C@@H]1CCCC[C@H]1N1CCCC1 | inactive: -1.07% |
| CC(C)/C=N\N=C(\N)N[N+](=O)[O-] | inactive: 5.72% |
| Clc1n[nH]nc1-c1nn[nH][15n]1 | inactive: 2.52% |
| CC(C)(C)C(=O)NC(Sc1ncccn1)C(Cl)(Cl)Cl (centres undefined) | inactive: 2.23% |
| CCOP(=O)(Nc1ccc(C)cn1)OCC | inactive: -2.12% |
| O=P1(Nc2ccccn2)COc2ccccc2OC1 | inactive: 6.58% |
| O=P1(Nc2ccc(Br)cn2)COc2ccccc2OC1 | inactive: 0.55% |
| O=[As](O)(c1cccs1)c1cccs1 | inactive: -8.21% |
| Cc1ccc(OCC(=O)OC2CN3CCC2CC3)cc1 (centres undefined) | inactive: 0.17% |
| Nc1cccc([As](=O)(O)c2ccccc2)c1 | inactive: -1.62% |
| O=P1(Nc2ncccn2)COc2ccccc2OC1 | inactive: 11.1% |
| O=C(/C=C/c1ccccc1)OC1CN2CCC1CC2 (centres undefined) | inactive: -1.04% |

| SMILES | inhibition |
| --- | --- |
| CN(C)C1(CNC(=O)c2ccc(S(C)(=O)=O)cc2)CCCCC1 | inactive: -0.73% |
| Cc1nn(-c2ccccc2)c2c1P(=O)(N1CCOCC1)N(C)C(c1ccccc1)=N2 (centres undefined) | inactive: 6.66% |
| CC1CCC(C(C)C)C(OP(=O)(Nc2ccccn2)c2ccccc2)C1 (centres undefined) | inactive: 6.12% |
| O=[N+]([O-])c1ccc2c(c1)nnn2O | inactive: -0.53% |
| CCOP1(=S)c2c(C)nn(CCC#N)c2N=C(c2ccc(F)cc2)N1C (centres undefined) | inactive: 0.86% |
| O=C(O)COc1ccc([As](=O)(O)O)cc1[N+](=O)[O-] | inactive: -2.44% |
| Nc1ccccc1[As](=O)(O)c1ccccc1 | inactive: -0.45% |
| CS(=O)(=O)c1cc([N+](=O)[O-])c2no[n+]([O-])c2c1 | inactive: 2.7% |
| CCOP1(=S)c2c(C)nn(CCC#N)c2N=C(c2ccccc2F)N1C (centres undefined) | inactive: 2.97% |
| O=P(Nc1nccs1)(c1ccccc1)c1nc2ccccc2s1 (centres undefined) | inactive: 5% |
| O=P(Nc1nccs1)(Oc1ccccc1)Oc1ccccc1 | inactive: 8.12% |
| COc1cc(C2NCCC3(OCCO3)C2(C)C)cc(OC)c1OC (centres undefined) | inactive: 5.88% |
| CCOP(=O)(Nc1cccc2ccccc12)OCC | inactive: 1.27% |
| CCCOP(=S)(Nc1nc(N)cc(=O)[nH]1)OCCC | inactive: -1.56% |
| Nc1cccc2c([As](=O)(O)O)cccc12 | inactive: -2.76% |
| Cc1ccc(NCCc2c([N+](=O)[O-])cc([N+](=O)[O-])cc2[N+](=O)[O-])cc1 | inactive: 3.69% |
| O=[As](O)(c1cccc(O)c1)c1cccc(O)c1 | inactive: -1.76% |
| Cc1cccc(OCC(=O)OC2CN3CCC2CC3)c1 (centres undefined) | inactive: 1.78% |
| COc1cc(C(=O)NCC2(N3CCOCC3)CCCCC2)cc(Cl)c1OC(C)C | inactive: 2.28% |
| O=[As](O)(O)c1cccnc1 | inactive: 0.18% |
| O=C(OC1CN2CCC1CC2)c1ccc(Cl)cc1 (centres undefined) | inactive: 16.9% |
| COc1ccc(N/C(=N/P(=O)(N2CCOCC2)N2CCOCC2)N2CCOCC2)cc1 | inactive: 4.37% |
| COc1ccc2nc(NP(=O)(c3ccccc3)c3ccccc3)sc2c1 | inactive: 3.63% |
| COc1cc(I)ccc1[As](=O)(O)O | inactive: 0.14% |
| O=C(OC1CN2CCC1CC2)C12CC3CC(CC(C3)C1)C2 (centres undefined) | inactive: 0.01% |
| Cc1cc(=O)[nH]c(N[N+](=O)[O-])n1 | inactive: 5.29% |
